Data published in US8637550B2, “Heteroaryl diamide compounds useful as MMP-13 inhibitors” (Boehringer Ingelheim International GmbH, priority 2008, dated 2014).

Molecular target: MMP-13 (Homo sapiens, UniProt P45452)
Test: EnzoLyte 520 Generic MMP Assay Kit, 5-FAM/QXL520 FRET peptide substrate
Format: biochemical

5-[5-(5-Methyl-3H-imidazol-4-ylmethoxy)-pyridin-2-yl]-furan-2-carboxylic acid ((S)-2-methyl-1-methylcarbamoyl-propyl)-amide
IC50: 29 nM
